The values that follow come from PubChem BioAssay AID743255 (National Center for Advancing Translational Sciences (NCATS), 2014).

Chains of the proteins cited; added tags and fusions are not shown.
UniProt O94782, whole entry, looked up: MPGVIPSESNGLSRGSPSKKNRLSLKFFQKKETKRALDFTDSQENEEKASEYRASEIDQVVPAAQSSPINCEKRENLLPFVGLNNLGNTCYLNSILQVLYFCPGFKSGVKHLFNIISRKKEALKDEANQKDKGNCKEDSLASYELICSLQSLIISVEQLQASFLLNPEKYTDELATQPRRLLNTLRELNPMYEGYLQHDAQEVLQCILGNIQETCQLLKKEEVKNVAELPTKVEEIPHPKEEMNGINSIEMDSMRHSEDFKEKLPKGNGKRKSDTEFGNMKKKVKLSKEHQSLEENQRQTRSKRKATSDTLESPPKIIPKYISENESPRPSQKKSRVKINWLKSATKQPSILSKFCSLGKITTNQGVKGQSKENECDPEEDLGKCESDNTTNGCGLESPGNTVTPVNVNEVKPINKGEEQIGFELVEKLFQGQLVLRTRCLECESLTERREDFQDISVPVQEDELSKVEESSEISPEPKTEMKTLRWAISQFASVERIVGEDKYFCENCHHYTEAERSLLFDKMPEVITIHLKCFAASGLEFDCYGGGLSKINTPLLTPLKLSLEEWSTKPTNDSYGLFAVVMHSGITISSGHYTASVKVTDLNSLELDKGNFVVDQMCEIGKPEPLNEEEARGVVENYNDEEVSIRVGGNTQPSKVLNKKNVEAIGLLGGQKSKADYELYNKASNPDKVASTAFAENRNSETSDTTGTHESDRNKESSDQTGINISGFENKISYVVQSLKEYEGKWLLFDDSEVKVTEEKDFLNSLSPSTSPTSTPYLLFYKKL

The entries are a selection whose mix differs from that of the whole data set. Records with an inconclusive call do not appear. The source made the active and inactive calls. Calls come from the whole dose curve; as a rule, active = well fitted inhibition curve with a large enough effect; inconclusive = small, poorly fitted or top-dose-only effect; inactive = no such curve, though single readings can be large or run the other way.
% is set by controls: 0 for no effect and ±100 for the full control effect.

In this test the target is Ubiquitin carboxyl-terminal hydrolase 1 (Homo sapiens) (UniProt O94782). Put plainly: Inhibitors of USP1/UAF1: Primary Screen. Note: nearly all actives have a fitted effect of over 60% in size. The note with it: recombinant USP1/UAF1, Ub-Rhodamine cleavage fluorescence; at 57.1 µM (top of the series). An excerpt: Deubiquitinating enzymes (DUBs) are a class of enzymes that can cleave isopeptide bond formed between the C-terminal carboxylate of ubiquitin and a lysine side-chain amino group on the target protein. Among them, ubiquitin specific proteases (USPs) constitute the largest DUB family. Human USPs are emerging as promising targets for pharmacological intervention because of their connection to a number of human diseases, including prostate, colon and breast cancer (1, 2), pediatric acute lymphoblastic leukemia (3), and familial cylindromatosis (4). The advantage of inhibiting USPs lies in the potential specificity of therapeutic intervention that can lead to better efficacy and reduce nonspecific side effects. […] This miniaturized assay has a fluorescent read-out and is used to screen the NIH Molecular Libraries Small Molecule Repository (MLSMR) in order to identify a small molecule that inhibits USP1. […]
3 microliters of reagents (buffer in columns 3 and 4 as negative control and 1nM USP1/UAF1 complex in columns 1, 2, and 5-48) are dispensed into Greiner black solid bottom 1536-well assay plates. […] The plates are immediately centrifuged at 1000 rpm for 15 seconds, and subsequently transferred to a ViewLux high-throughput CCD imager (PerkinElmer) wherein kinetic measurements of fluorescence are acquired using 480 nm excitation/540 nm emission filter set (6 reads every 60 seconds, see Table 1). […]
For `CCC(=O)N(c1ccccc1)C1(COC)CCN(CCn2nnn(CC)c2=O)CC1`, the activity change, negative = inhibition was inactive: -23.2%. The result for `CCC(=O)N(c1ccccc1)C1(COC)CCN(CCc2cccs2)CC1` reads inactive: -13.9%.
